From ChEMBL document CHEMBL5154779, “Exploration of novel phthalazinone derivatives as potential efflux transporter inhibitors for reversing multidrug resistance and improving the oral absorption of paclitaxel” (Eur J Med Chem, 2022)

Protein sequences, listed by entry. Tags and fused reporters are not part of them. Lines headed by an entry give the natural chain unless they say otherwise; changes in a name come on top.
UniProt Q9UNQ0: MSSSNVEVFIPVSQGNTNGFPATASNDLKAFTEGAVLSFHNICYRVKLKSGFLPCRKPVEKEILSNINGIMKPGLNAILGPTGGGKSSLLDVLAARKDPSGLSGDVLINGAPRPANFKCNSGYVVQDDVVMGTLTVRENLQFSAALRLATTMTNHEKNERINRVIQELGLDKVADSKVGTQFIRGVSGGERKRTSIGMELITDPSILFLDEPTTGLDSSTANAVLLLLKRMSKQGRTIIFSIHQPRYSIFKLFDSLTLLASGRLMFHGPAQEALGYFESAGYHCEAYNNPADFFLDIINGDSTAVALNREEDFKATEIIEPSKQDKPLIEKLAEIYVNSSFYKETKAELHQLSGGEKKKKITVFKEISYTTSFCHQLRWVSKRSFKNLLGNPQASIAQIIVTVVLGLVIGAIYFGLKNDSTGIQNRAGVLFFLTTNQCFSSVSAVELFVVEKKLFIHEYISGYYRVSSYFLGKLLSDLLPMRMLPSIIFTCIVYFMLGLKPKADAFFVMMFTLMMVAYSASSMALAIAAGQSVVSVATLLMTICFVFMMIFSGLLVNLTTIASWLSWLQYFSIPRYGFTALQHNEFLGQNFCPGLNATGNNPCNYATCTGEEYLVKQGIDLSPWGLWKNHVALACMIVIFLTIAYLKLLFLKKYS

Biological target: Broad substrate specificity ATP-binding cassette transporter ABCG2 (Homo sapiens, UniProt Q9UNQ0)
Assay: Inhibition of BCRP (unknown origin)

Structure (SMILES): COc1cc2ncnc(Nc3ccc(F)c(Cl)c3)c2cc1OCCCN1CCOCC1 [GEFITINIB]
- EC50: 300 nM
